Patent publication US4066510A, “Assay for mutagenesis in diploid human lymphoblasts” (Massachusetts Institute of Technology, priority 1976, dated 1978)

How the values were obtained:
[1] = test system: human lymphoblast line (MIT-2); assay: Mutagenesis assay: 6TG-resistant mutant fraction in diploid human lymphoblasts; conditions: for INDUCED MUTANT FRACTION: 24 h treatment: EMS 840, MNU 50, MNNG .225, BUdR 50, ICR-191 1.25 μM, control 0.05 to 0.40 × 10^-4; for number of divisions required for full phenotypic expression: MIT-2, FIG. 4
[2] = test system: human lymphoblast line (MIT-2); assay: Cell survival and growth of human lymphoblasts after mutagen treatment (soft-agar plating, particle counts); conditions: 24 h treatment: EMS 840, MNU 50, MNNG .225, BUdR 50, ICR-191 1.25 μM

## COc1ccc2nc3cc(Cl)ccc3c(NCCCNCCCl)c2c1
[1]
  INDUCED MUTANT FRACTION: 5.6 × 10^4
  number of divisions required for full phenotypic expression: 16 divisions
[2]
  EST. INITIAL GROWTH DELAY: 3 to 4 days
[2]; cloning efficiency at 24 hours
  PERCENT SURVIVING: 18%

## O=c1[nH]c(=O)n([C@H]2C[C@H](O)[C@@H](CO)O2)cc1Br
[1]
  INDUCED MUTANT FRACTION: 4.2 × 10^4

## CCOS(C)(=O)=O [EMS, ethyl methane sulphonate]
[1]
  INDUCED MUTANT FRACTION: 6.9 × 10^4
  number of divisions required for full phenotypic expression: 9 divisions

## CN(N=O)C(N)=O [MNU, methylnitrosourea]
[1]; 8 μg/ml MNU
  time at which 6TG^R cells were found: by the eighth day after treatment
[1]; 8 μg/ml MNU, plated in 10 μg/ml 6TG
  plating efficiency of 6TG^R cells, stable maximum: 1.3 × 10^-4 observed clones per plated particle
[1]; 8 μg/ml MNU, same as before treatment
  observed mutant fraction on days 8 and 10: 4 × 10^-5
[1]; 8 μg/ml MNU, stable on days 16-22
  mutant fraction, stable maximum: 4.6 × 10^-4 6TG^R clones per total plated clones
[1]
  INDUCED MUTANT FRACTION: 4.8 × 10^4
[1]; beginning between 6 and 8 μg/ml and lasting through 12 μg/ml
  observed mutant fraction as a function of MNU concentration, higher range: much faster rate of increase
[1]; dose range of 0.6 μg/ml of MNU (so in the source)
  observed mutant fraction as a function of MNU concentration, lower range: a monotonic increase in mutant fraction seemed to occur
[1]; five other MNU-treated cultures
  final mutant fraction versus untreated controls: significantly greater than the untreated controls
